The values that follow are results of earlier work, collected in patent publication US8093043B2, “β-TrCP1, β-TrCP2 and RSK1 or RSK2 inhibitors and methods for sensitizing target cells to apoptosis” (New York University, priority 2008, dated 2012).

Each structure is given as a SMILES string.

The test system of series [1] is HCC827 cells. The conditions noted are these: EGFR mutant NSCLC; cited from earlier work.
Series [2] has as its system NSCLCs with EGFR mutations. The note with it: initially; cited from earlier work.

Turning to `COc1cc2ncnc(Nc3ccc(F)c(Cl)c3)c2cc1OCCCN1CCOCC1` [gefitinib], the sensitivity to gefitinib result in series [1] was “sensitive”. The apoptotic response result in series [2] is “trigger a BimEL-dependent apoptotic response”.
